Measured values taken from PubChem BioAssay AID504775 (Broad Institute, 2011).
This is a selection; strong and weak results do not stand in their true shares. The source made the active and inactive calls.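 The calls were made as follows: active = mean replicate activation of at least 60% and every replicate at or above 60%; inconclusive = mean or all-replicate condition met, but not both; inactive = mean below 60% and not all replicates reaching 60%.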

Assay: activators of SR-BI mediated DiI-HDL uptake, primary screen, ldlA[mSR-BI] CHO cells, DiI fluorescence (AID 504775);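 also: 0% = median plate neutral-control signal and 100% = twice that signal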
Conditions: 3 h, at 12.5 µM, active compounds read high, 100 = double the neutral-control signal
Procedure, shortened: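 Material – SR-BI-overexpressing, LDLR-lacking CHO cells · Medium – BSA-supplemented, HEPES-buffered Ham's F12, pH 7.4 · Doses – single concentration · Times – compound with DiI-HDL co-incubation, 3 h at 37 °C · Measured by – bottom-read fluorescence, 550/595 nm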

SMILES	activation
CCCC1OP(N)(=O)OCC1CC (stereo unspecified)	inactive: 6.49%
O=C(O)c1ccccc1[As](=O)(O)O	inactive: -4.64%
CC(=O)Nc1ccc([As](=O)(O)O)cc1	inactive: 6.8%
O=P(Nc1nc2ccc(Cl)cc2s1)(c1ccccc1)c1ccccc1	inactive: -4.08%
CN(C(=O)Cc1ccc(Cl)c(Cl)c1)[C@H]1CCCC[C@@H]1N1CCCC1	inactive: 28.6%
Cc1ccc(NP(=O)(Oc2ccccc2F)Oc2ccccc2F)nc1	inactive: -4.6%
CCOP(=O)(Nc1ccccc1)OCC	inactive: 14%
Cc1cc(SC(NC(=O)c2ccc(F)cc2)C(Cl)(Cl)Cl)ncn1 (stereo unspecified)	inactive: -13.9%
O=[N+]([O-])c1ncn(CCn2ncnc2[N+](=O)[O-])n1	inactive: -11.9%
O=[N+]([O-])c1cccc(NC2=NCC(CBr)S2)c1 (stereo unspecified)	inactive: -2.48%
COC(=O)C1(C)COP(=O)(Nc2ccccc2)OC1 (stereo unspecified)	inactive: 10.2%
O=C(O)CNc1ccc([As](=O)(O)O)cc1	inactive: 6.76%
O=P1(N(CCCl)CCCl)OCCCS1 (stereo unspecified)	inactive: 8.71%
O=C(Nc1cc([As](=O)(O)O)ccc1O)c1ccccc1	inactive: -6.28%
C[N+]1=C2C=CC=CC=C2SC12C([N+](=O)[O-])=CC([N+](=O)[O-])=C[C-]2[N+](=O)[O-] (stereo unspecified)	inactive: -13.8%
Nc1ccc([As](=O)(O)c2ccc(N)cc2)cc1	inactive: 16.8%
CCN(/C(=N/P(=O)(N1CCOCC1)N1CCOCC1)N1CCOCC1)c1ccc(OC)cc1	inactive: 10.6%
CN(C)C(=O)OCCc1n(C)cc[n+]1C	inactive: 23.9%
CC(C)=N/N=C(\N)N[N+](=O)[O-]	inactive: -0.047%
COc1ccc(C2=NCC(CBr)S2)cc1 (stereo unspecified)	inactive: -2.65%
CC(=O)N1C2C3N(C(C)=O)C1C1N(C(C)=O)C(C(N1C(C)=O)N3C(C)=O)N2C(C)=O	inactive: 3.59%
O=[N+]([O-])c1cccc2n[nH]nc12	inactive: 45.3%
O=[N+]([O-])c1cc([N+](=O)[O-])c(CCNc2ccccc2)c([N+](=O)[O-])c1	inactive: -8.88%
CCc1nc2c(n1)c1c(non1O)c1c2no[n+]1[O-]	inactive: 8.89%
Cc1ccc(NP(=O)(Oc2ccccc2)Oc2ccccc2)nc1	inactive: -2.9%
CCOC(=O)c1ccc(NC(=O)C(C)(CCl)SC)cc1 (stereo unspecified)	inactive: -4.36%

SMILES	activation
O=C(OC1CN2CCC1CC2)c1cccc([N+](=O)[O-])c1 (stereo unspecified)	inactive: 8.07%
CCC(C)N(CC(C)C)C(=S)SC(NC(C)=O)C(Cl)(Cl)Cl (stereo unspecified)	inactive: -27.5%
COP1(=S)c2c(C)nn(CCC#N)c2N=C(c2ccc(F)cc2)N1C (stereo unspecified)	inactive: -20.1%
O=C(Nc1ccncc1[N+](=O)[O-])c1ccc([N+](=O)[O-])cc1[N+](=O)[O-]	inactive: 6.42%
CCOC(=O)Nc1cccc([As](=O)(O)O)c1	inactive: 21%
O=[N+]([O-])c1ccc(Nc2ccc(Oc3ccc([N+](=O)[O-])cc3[N+](=O)[O-])cc2)c([N+](=O)[O-])c1	inactive: 8.64%
Cc1cc(SC(NC=O)C(Cl)(Cl)Cl)ncn1 (stereo unspecified)	inactive: 11.3%
O=P(Nc1ccccn1)(c1cccc2ccccc12)c1cccc2ccccc12	inactive: -0.121%
CC1CCNP(=O)(N(CCCl)CCCl)O1 (stereo unspecified)	inactive: 16.2%
CCOC(=O)Nc1ccc([As](=O)(O)O)c(O)c1	inactive: -7.21%
Cc1cc(SC(NC(=O)c2ccccc2)C(Cl)(Cl)Cl)nc(C(C)C)n1 (stereo unspecified)	inactive: 15.8%
CCCCOc1ccc(C(=O)NCC2(N3CCCCC3)CCCCC2)cc1OC	inactive: 6.27%
CC(C)c1ccc(OP(=O)(Nc2ccccn2)Oc2ccccc2F)cc1 (stereo unspecified)	inactive: 12.9%
COC(=O)C1(C)COP(=O)(N2CCCCCC2)OC1 (stereo unspecified)	inactive: 17.3%
ClCCSc1nnc(-c2cccnc2)o1	inactive: 15.3%
O=[N+]([O-])c1cc([N+](=O)[O-])c(-c2ccn[nH]2)s1	inactive: 14.1%
O=C(OC1CN2CCC1CC2)c1cccc2[nH]cnc12 (stereo unspecified)	inactive: 9.54%
CCN(CC)C(=S)SC(NC=O)C(Cl)(Cl)Cl (stereo unspecified)	inactive: 5.71%
CC(C)NC(=O)NP(=O)(Oc1ccccc1)Oc1ccccc1	inactive: -1.72%
COc1cc(C(=O)NCC2(N3CCOCC3)CCCCC2)ccc1OCC(C)C	inactive: -21.6%
O=[N+]([O-])c1ccc(-c2cc([N+](=O)[O-])c(O)c([N+](=O)[O-])c2)cc1	inactive: 14.2%
C[As](=O)(O)c1cccc(C(=O)O)c1	inactive: 11.3%
O=[As](O)(c1ccc(O)cc1)c1ccccc1O	inactive: 35.6%
Cc1ccc2nc3c(c(C)c2c1)CC(C(Cl)Cl)S3 (stereo unspecified)	inactive: -5.32%
Cc1ccc(OP(=O)(Nc2ccc([N+](=O)[O-])cn2)Oc2ccc(C)cc2)cc1	inactive: 8.77%
